# Reference: PMC9568543, “Bee-safe peptidomimetic acaricides achieved by comparative genomics” (Scientific Reports, 2022)
# Sequences of proteins named here, by UniProt entry; tags and fusion partners are left off.
# UniProt A0A7T1TE40, entry or part of it: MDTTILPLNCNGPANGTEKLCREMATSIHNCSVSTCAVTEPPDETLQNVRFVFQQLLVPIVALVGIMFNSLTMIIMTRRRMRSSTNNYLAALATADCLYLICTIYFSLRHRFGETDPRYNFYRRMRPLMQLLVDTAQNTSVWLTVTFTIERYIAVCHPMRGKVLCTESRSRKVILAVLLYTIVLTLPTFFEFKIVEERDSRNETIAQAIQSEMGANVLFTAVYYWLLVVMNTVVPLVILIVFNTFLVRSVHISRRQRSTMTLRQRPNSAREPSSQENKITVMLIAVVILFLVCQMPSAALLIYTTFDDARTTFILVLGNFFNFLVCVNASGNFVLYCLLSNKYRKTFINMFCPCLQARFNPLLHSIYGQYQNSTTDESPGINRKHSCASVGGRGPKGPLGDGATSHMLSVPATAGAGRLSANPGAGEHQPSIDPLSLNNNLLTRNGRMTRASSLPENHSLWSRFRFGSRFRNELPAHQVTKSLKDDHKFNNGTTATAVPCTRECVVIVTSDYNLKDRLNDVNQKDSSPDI
# Molecular target: Varroa mite proctolin receptor (VdProctR) (Varroa destructor, UniProt A0A7T1TE40)
# Experiment: Receptor activity assay (aequorin luminescence), CHO cells transiently expressing the receptor, first set of ligands
# Type: cell-based
# Conditions: EC50 relative to proctolin, first set (transient expression)
# Experimental: Cells were transiently transfected with pcDNA3.1 + containing the open reading frame of Varroa mite proctolin receptor (VdProctR) or empty vector using TransIT®-2020 (Mirus Bio). Approximately thirty hours after transfection, the cells were collected and preincubated with coelenterazine h for the functional assay, as previously described[30],[31],[52]. The ligands in serial dilutions were loaded into 96-well opaque plates. Cells treated with coelenterazine h were injected into each well on an Orion microplate luminometer (Berthold) luminescent plate reader. The luminescence was measured for 20 s immediately after the cell injections. Data analyses were performed to determine the accumulated luminescence value for 20 s after extraction of blank-well luminescence. A dose–response curve was generated and the EC50 (50% effective concentration) was calculated in Origin 7 (OriginLab) as described in Jiang et al.[31],[53]. The three biological replications were regressed for the dose–response curves with 95% confidence intervals (Table 1). For the tests of the second set of ligands, we used the cell line that stably expressed VdProctR, which were selected by Zeocin for 5 passages.
row,Compound,Fold change
1,"CC(C)C[C@H](NC(=O)[C@H](Cc1ccc(O)cc1)NC(=O)[C@H](C)N)C(=O)N1CCC[C@H]1C(=O)N[C@H](C(=O)O)[C@@H](C)O [Analog A1, AYLPT]",3921.7
2,"CC(C)C[C@H](NC(=O)[C@H](C)NC(=O)[C@@H](N)CCCNC(=N)N)C(=O)N1CCC[C@H]1C(=O)N[C@H](C(=O)O)[C@@H](C)O [Analog A2, RALPT]",6724.1
3,"C[C@H](NC(=O)[C@H](Cc1ccc(O)cc1)NC(=O)[C@@H](N)CCCNC(=N)N)C(=O)N1CCC[C@H]1C(=O)N[C@H](C(=O)O)[C@@H](C)O [Analog A3, RYAPT]",380.0
4,"CC(C)C[C@H](NC(=O)[C@H](Cc1ccc(O)cc1)NC(=O)[C@@H](N)CCCNC(=N)N)C(=O)N[C@@H](C)C(=O)N[C@H](C(=O)O)[C@@H](C)O [Analog A4, RYLAT]",22.1
5,"CC(C)C[C@H](NC(=O)[C@H](Cc1ccc(O)cc1)NC(=O)[C@@H](N)CCCNC(=N)N)C(=O)N1CCC[C@H]1C(=O)N[C@@H](C)C(=O)O [Analog A5, RYLPA]",172.3

# Same assay, conditions: activities at 1 μM and 10 μM
row,Compound,efficacy (maximal response) compared with proctolin
1,"CC(C)C[C@H](NC(=O)[C@H](Cc1ccc(O)cc1)NC(=O)[C@@H](N)CCCNC(=N)N)C(=O)N[C@@H](C)C(=O)N[C@H](C(=O)O)[C@@H](C)O [Analog A4, RYLAT]",higher than that of proctolin
